ChEMBL document CHEMBL3885881, “DrugMatrix”

Legend:
Rattus norvegicus [1] = organism: Rattus norvegicus; format: toxicity, organism-based, Sprague-Dawley; settings: in vivo, sc, 24 h, tissue Blood, route mini-PUMP - SUBCUTANEOUS, time 1 day, vehicle 100 % SALINE
Rattus norvegicus [2] = organism: Rattus norvegicus; experiment: DrugMatrix - Regimen: Daily Repeat; format: toxicity, organism-based, Sprague-Dawley; set-up: regimen Daily Repeat, gender Male, age 6-8 weeks; settings: in vivo, sc, route mini-PUMP - SUBCUTANEOUS, vehicle 100 % SALINE

CNCC(O)c1ccc(O)c(O)c1 (stereo unspecified) [RACEPINEPHRINE]
MONOCYTE (Rattus norvegicus [1]; 0 mg/kg, dose level Control): 1.83%
HEMATOCRIT (Rattus norvegicus [1]; […], dose 0.77 mg/Kg, dose level High): 35.5%
MONOCYTE (Rattus norvegicus [2]; 0 mg/kg, 120 h, tissue Blood, dose level Control, time 5 day): 1.83%
NEUTROPHIL (Rattus norvegicus [2]; 0 mg/kg, […], tissue Blood, dose level Control, time 14 day): 16.5%
HEMATOCRIT (Rattus norvegicus [2]; […], 72 h, tissue Blood, dose 0.77 mg/Kg, dose level High, time 3 day): 37.5%
URIC ACID (Rattus norvegicus [2]; […], 120 h, tissue Plasma, dose 0.77 mg/Kg, dose level High, time 5 day): 1.57 mg/dL
